Measurements reported in patent US10449157B2, “Process for producing microcapsules comprising an active component encapsulated, protected and stabilised within a protein shell” (Anabio Technologies Limited, priority 2013, dated 2019).

Test: Stability trials of free and encapsulated Creatine in water (HPLC)
Details: after 1 hour in water at room temperature

Compound: CN(CC(=O)O)C(=N)N.O [commercial Creatine monohydrate, Creatine monohydrate]
- initial Creatine concentration still present: 9%±1.34%
